Here are results for 1 compound from patent publication US6632799B2, “Injectable ready-to-use solutions containing an antitumor anthracycline glycoside” (Pharmacia & Upjohn Company, priority 1985, dated 2003).

Where a name gives a salt, the structure may show the parent alone.

Format in all cases: physicochemical
The nature of data set [1]: pH-stability profile at 55° C. of doxorubicin.HCl solutions in sterile water, 5% dextrose, 0.9% saline.
The nature of data set [2]: Shelf-life (t 90%) forecast of doxorubicin.HCl 2 mg/ml solution in 5% dextrose adjusted to pH 3.0. The following applies: 5% dextrose pH 3.0, 55° C., 4 days.
A short description of data set [3]: Shelf-life (t 90%) forecast of doxorubicin.HCl 2 mg/ml sterile water solution adjusted to pH 3.0. The procedure:
The Arrhenius equation for the degradation process was calculated from the Kobs obtained from the different temperatures taken in account for the testing (table 11).
Applying the equation, the rate constants for the pseudo-first order reactions at 4° C., 8° C., 15° C. and 27° C. were calculated, together with the expected t90% at these temperatures.

As for `COc1cccc2c1C(=O)c1c(O)c3c(c(O)c1C2=O)C[C@@](O)(C(=O)CO)C[C@@H]3O[C@H]1C[C@H](N)[C@H](O)[C@H](C)O1` [Doxorubicin.HCl, doxorubicin hydrochloride], the Doxorubicin.HCl % stability in data set [1] (0.9% saline, pH 2.5 buffer, 8 hours) is 96.3%; in data set [1] (0.9% saline, pH 5.0 buffer, 16 hours), 74.2%; in data set [1] (5% dextrose, pH 4.0 buffer, 24 hours), 83.1%; in data set [1] (5% dextrose, pH 4.0 buffer, 34 hours) it was 74.2%; in data set [1] (sterile water, pH 2.5 buffer, 72 hours), 50.2%; in data set [1] (sterile water, pH 5.0 buffer, 48 hours), 52.5. The Doxorubicin.HCl % stability in data set [2] worked out at 81.3%; in data set [3] (sterile water pH 3.0, 35° C., 14 days), 94.8%; in data set [3] (sterile water pH 3.0, 45° C., 4 days), 96.3%.
